Patent publication US20130273052A1 (Alexion, published 2013)

Chains of the proteins cited; added tags and fusions are not shown. A line that says so, or that is headed by a name, gives the form on record, which may keep a tag or linker.
human complement component C5 protein, one chain, as listed by the source, chain 2 of 2: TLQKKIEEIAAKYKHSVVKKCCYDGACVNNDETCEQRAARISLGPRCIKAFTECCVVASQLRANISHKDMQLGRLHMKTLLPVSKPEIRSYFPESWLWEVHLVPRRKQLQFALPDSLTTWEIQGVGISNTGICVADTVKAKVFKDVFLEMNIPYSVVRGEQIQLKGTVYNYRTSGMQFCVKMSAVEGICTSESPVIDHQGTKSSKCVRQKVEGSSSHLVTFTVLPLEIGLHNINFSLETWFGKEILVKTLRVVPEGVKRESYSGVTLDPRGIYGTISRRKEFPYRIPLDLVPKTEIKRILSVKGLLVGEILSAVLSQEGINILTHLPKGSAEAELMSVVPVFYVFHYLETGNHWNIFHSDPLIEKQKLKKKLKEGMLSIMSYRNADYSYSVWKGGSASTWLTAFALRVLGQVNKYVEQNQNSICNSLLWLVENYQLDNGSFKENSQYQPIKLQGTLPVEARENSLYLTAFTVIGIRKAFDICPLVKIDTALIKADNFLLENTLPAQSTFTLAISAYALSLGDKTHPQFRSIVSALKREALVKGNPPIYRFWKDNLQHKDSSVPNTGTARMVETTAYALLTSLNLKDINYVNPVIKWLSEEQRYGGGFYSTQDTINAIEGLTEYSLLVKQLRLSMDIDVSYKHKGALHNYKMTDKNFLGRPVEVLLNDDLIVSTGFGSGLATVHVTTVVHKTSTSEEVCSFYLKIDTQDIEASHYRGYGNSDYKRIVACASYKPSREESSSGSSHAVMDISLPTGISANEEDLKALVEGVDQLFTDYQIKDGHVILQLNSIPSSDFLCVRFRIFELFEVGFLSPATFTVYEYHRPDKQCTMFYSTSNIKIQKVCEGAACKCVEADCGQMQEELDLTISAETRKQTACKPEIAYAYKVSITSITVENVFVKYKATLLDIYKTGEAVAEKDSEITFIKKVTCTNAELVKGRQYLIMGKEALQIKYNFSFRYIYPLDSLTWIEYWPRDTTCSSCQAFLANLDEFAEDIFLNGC

Columns and labels:
[1] = molecular target: human complement component C5 protein (human); experiment: cell-based or functional assay
[2] = molecular target: human complement component C5 protein (human); experiment: Biacore 3000 SPR, under similar conditions to R38Q scFv (scFv immobilised, C5 as analyte)

B1: pexelizumab (scFv, V domains shown)
VH: QVQLVQSGAEVKKPGASVKVSCKASGYIFSNYWIQWVRQAPGQGLEWMGEILPGSGSTEYTENFKDRVTMTRDTSTSTVYMELSSLRSEDTAVYYCARYFFGSSPNWYFDVWGQGTLVTVSS
VL: DIQMTQSPSSLSASVGDRVTITCGASENIYGALNWYQRKPGKAPKLLIYGATNLADGVPSRFSGSGSGTDFTLTISSLQPEDFATYYCQNVLNTPLTFGQGTKVEIK
With B1 as the binder, how does the “inhibition of chicken erythrocyte hemolysis in about 10% normal human serum (absorbance at 415 nm), IC50” value [1] read?
The value was about 2 µg/mL.

What about the Kd [2] of the same binder?
The Kd was 390 µM.
